Activity calls are given as the source filed them. No cut-off for these calls is given here.
Key:
Homo sapiens = organism: Homo sapiens; assay: Selectivity index, ratio of Kd for recombinant human C-terminal Galectin 9 expressed in Escherichia coli BL21 to Kd for recombinant human N-terminal Galectin 9 expressed in Escherichia coli BL21
[1] = molecular target: T1, Galectin-4 (Homo sapiens) (UniProt P56470); assay: Binding affinity at recombinant human C-terminal Galectin 4 expressed in Escherichia coli BL21 at 2 mM incubated for 5 mins by fluorescence anisotropy assay
T1 sequence (whole entry): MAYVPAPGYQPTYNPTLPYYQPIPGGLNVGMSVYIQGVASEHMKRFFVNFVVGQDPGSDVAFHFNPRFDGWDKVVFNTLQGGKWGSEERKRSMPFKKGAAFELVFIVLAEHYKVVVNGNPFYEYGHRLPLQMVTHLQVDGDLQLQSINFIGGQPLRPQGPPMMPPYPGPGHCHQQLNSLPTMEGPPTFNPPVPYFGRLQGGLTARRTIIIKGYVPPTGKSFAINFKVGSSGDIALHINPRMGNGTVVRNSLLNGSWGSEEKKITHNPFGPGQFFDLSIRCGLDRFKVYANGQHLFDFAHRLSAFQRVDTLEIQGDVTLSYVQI

[2] = molecular target: T1, Galectin-4 (Homo sapiens); assay: Binding affinity at recombinant human N-terminal Galectin 4 expressed in Escherichia coli BL21 at 2 mM incubated for 5 mins by fluorescence anisotropy assay

SMILES | Ratio (Homo sapiens) | Activity [1] | Activity [2]
COc1cccc(N[C@H]2[C@@H](O)[C@@H](Sc3ccc(Cl)c(Cl)c3)O[C@H](CO)[C@@H]2O)c1 | 5 |  | 
CO[C@@H]1O[C@H](CO)[C@H](O)[C@H](Nc2ccc(C)cc2)[C@H]1O |  | inactive | 
CO[C@@H]1O[C@H](CO)[C@H](O)[C@@H](Nc2cccc(Cl)c2)[C@H]1O |  | inactive | inactive
CO[C@@H]1O[C@H](CO)[C@H](O)[C@H](Nc2cccc(C)c2)[C@H]1O |  |  | inactive
CO[C@@H]1O[C@H](CO)[C@H](O)[C@@H](Nc2cccc(C)c2)[C@H]1O |  | inactive | inactive
CO[C@@H]1O[C@H](CO)[C@H](O)[C@H](Nc2ccc(F)c(F)c2)[C@H]1O |  |  | inactive
CO[C@@H]1O[C@H](CO)[C@H](O)[C@H](Nc2ccccc2)[C@H]1O |  | inactive | inactive
COc1ccc(N[C@@H]2[C@@H](O)[C@@H](CO)O[C@@H](OC)[C@@H]2O)cc1 |  | inactive | inactive
CO[C@@H]1O[C@H](CO)[C@H](O)[C@@H](Nc2ccc(F)c(F)c2)[C@H]1O |  |  | inactive
CO[C@@H]1O[C@H](CO)[C@H](O)[C@@H](Nc2ccc(C)cc2)[C@H]1O |  | inactive | inactive
COc1cccc(N[C@@H]2[C@@H](O)[C@@H](CO)O[C@@H](OC)[C@@H]2O)c1 |  | inactive | inactive
CO[C@@H]1O[C@H](CO)[C@H](O)[C@@H](Nc2ccccc2)[C@H]1O |  | inactive | inactive

From ChEMBL document CHEMBL4334540, “Epimers Switch Galectin-9 Domain Selectivity: 3N-Aryl Galactosides Bind the C-Terminal and Gulosides Bind the N-Terminal” (ACS Med Chem Lett, 2020)
